Results: paper PMC4701392

Columns and labels:
[1] = target: K315A mutant δ-crystallin (goose) (goose) (UniProt P33110); assay: AUC; sedimentation velocity, c(s) and c(s, f/f0) analysis, no urea, 0.2 mg/mL protein, 20°C, 50 mM Tris-acetic acid buffer pH 7.5
P33110 = assay: AUC; sedimentation velocity, c(s) analysis, wild type in 2.5, 3.0 and 3.5 M urea, 0.2 mg/mL protein, 20°C; dimer to monomers
[2] = target: wild-type δ-crystallin (goose) (goose) (UniProt P33110); assay: as above
[3] = target: wild-type δ-crystallin (goose) (goose) (UniProt P33110); assay: AUC; sedimentation velocity, c(s) and c(s, f/f0) analysis, no urea, 0.2 mg/mL protein, 20°C, 50 mM Tris-acetic acid buffer pH 7.5

K315A mutant δ-crystallin (goose) (from UniProt P33110 2-466) (natural protein)
stoichiometry N [1]: 4

wild-type δ-crystallin (goose)
proportion of the monomeric peak at 2.5 M urea (P33110): increased from 6% to 27% to 60%
proportion of the monomeric peak at 3.0 M urea (P33110): increased from 6% to 27% to 60%
proportion of the monomeric peak at 3.5 M urea (P33110): increased from 6% to 27% to 60%

wild-type δ-crystallin (goose) (from UniProt P33110 2-466) (natural protein)
stoichiometry N [2]: 2
stoichiometry N [3]: 4
